Experimental data from patent US20060252670A1, “Method of reducing drug-induced adverse side effects in a patient” (Intercept Pharmaceuticals Inc., priority 2004, published 2006).

System: liver fibrosis induced by porcine serum
Assay: Liver fibrosis induced by 8-week porcine serum administration to rats: 6-ECDCA, rosiglitazone and combination
Conditions: for ALP / ALT / Bilirubin: porcine serum rats, 8 weeks, mean ± SE

ALP (oral 1 mg/kg (each drug)): 23.4 ± 3.7 U/dl
Bilirubin (oral 1 mg/kg (each drug)): 0.3 ± 0.06 mg/dL
ALP (oral 3 mg/kg (each drug)): 25.6 ± 3.1 U/dl
Bilirubin (oral 3 mg/kg (each drug)): 0.3 ± 0.07 mg/dL
SMILES: CN(CCOc1ccc(CC2SC(=O)NC2=O)cc1)c1ccccn1 (stereo not shown) [rosiglitazone, reference compound]
liver function as measured by plasma ALT, alkaline phosphatase and bilirubin (1 and 3 mg/kg, P>0.05 versus control and porcine serum-treated rats): did not affect liver function
ALT (oral 1 mg/kg (each drug)): 47.6 ± 4.2 U/L
ALT (oral 3 mg/kg (each drug)): 40.7 ± 5.2 U/L
